## Apparent affinities of Ab-14 variants for a coronavirus HR2 peptide

All variants were tested on one target, the spike HR2 peptide PDVDLGDISGINAS (SARS-CoV-2).

Parent: Ab-14, a human scFv built as VH, three GGGGS repeats, VL. Only the CDRs of the heavy chain vary.
VH: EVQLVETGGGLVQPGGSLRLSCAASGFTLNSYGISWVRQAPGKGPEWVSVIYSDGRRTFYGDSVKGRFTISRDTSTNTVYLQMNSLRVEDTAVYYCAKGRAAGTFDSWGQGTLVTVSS
VL: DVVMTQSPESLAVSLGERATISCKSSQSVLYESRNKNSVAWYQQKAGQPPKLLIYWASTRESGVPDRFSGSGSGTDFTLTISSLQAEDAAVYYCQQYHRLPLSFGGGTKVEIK

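The variants were designed computationally from a first round of random CDR variants and then made and measured. Group labels follow the data file (Ctrl: baseline library sampled from a position-specific scoring matrix, with some repeated check sequences; Rand: our label for a block that the file lists under HC and that is probably the random mutants of the ten best first-round binders; GP: Gaussian process model; GPLM: also part of the Gaussian process libraries; HC: hill climbing; Gen: genetic algorithm; Gibbs: Gibbs sampling; a sequence that several methods proposed may carry one label only). AlphaSeq pools MATa yeast showing the antibodies with MATalpha yeast showing the peptide. The frequency of each diploid, read from paired DNA barcodes, reflects how well the two displayed proteins bind. Scores were corrected for input abundance and mapped to Kd with protein pairs of known affinity run in the same pool. The assay was run in six technical replicates.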

Each variant is given by its three heavy chain CDRs, as the data file delimits them; those of the parent are GFTLNSYGIS, VIYSDGRRTFYGDSVK, GRAAGTFDS. Variants here have at most six changes. Values are log10 of the apparent Kd in nM; lower means stronger binding. Averages over replicates are reported, and they cover detected replicates only. Where no diploid with the target was found in that replicate, the entry reads "nd": below detection, most likely a poor binder, though not proof of it. In the paper, a design with two or fewer of six values counts as a poor binder.

The variant GFTLRSYGIS, VIYSDGRRNFYSDSVK, GRAGGTFCS [Rand] gave nd, nd, nd, nd, nd, nd.
The variant GVTLNSYGIS, VIYSDGRRTFYGDNVK, GRNVGTFFS [Ctrl] gave nd, nd, nd, nd, nd, nd.
The variant GFNLNSYGIS, VIYSDGRRTFYGDSVK, GRAAGTFSL [Ctrl] gave nd, 2.90, nd, nd, nd, nd.
The variant GFTLNDYGIS, VIYSDGRRTFYGDSVK, GVAAGTFDW [Ctrl] gave nd, nd, nd, nd, nd, nd.
The variant GFRLNEYGIS, VIYSDGRRTFYSDSVK, GRAAGTFDS [GP_HC] gave 0.26, 0.05, 0.67, 0.27, 0.12, 0.33 (mean 0.28).
The variant GFTLNSYGIS, VIYSDGFRTFYGDSVK, GFAAGTFDS [Ctrl] gave nd, nd, nd, nd, nd, nd.
The variant GFTLNSYGIS, VIYSDGQRTSYGDSVK, GRAAGTTDS [Ctrl] gave nd, nd, nd, nd, nd, nd.
The variant GFTLNSYGIS, VIYSDGFRVFYGDSVK, GRAAGTFDS [Ctrl] gave nd, nd, nd, nd, nd, nd.
The variant GFMLNSYGIS, VIYSDGRRTFYGDSVK, GRAAGTFDQ [Ctrl] gave nd, nd, nd, nd, nd, nd.
The variant GFDLNSYGIS, VIYSDGRRTFYDDRVK, GREAGTFDS [GP_Gibbs] gave -0.22, -0.59, -0.45, -0.57, -0.43, -0.27 (mean -0.42).
The variant GFDLTQYGIS, VIYSDGRRTFYGDSVK, GRAAGTFDD [Ctrl] gave 0.73, 0.72, 0.32, 1.89, 0.78, 1.12 (mean 0.93).
The variant GFWLNSYGIS, VIYSDGVRTFYGDSVK, GRAALTFDV [Ctrl] gave nd, nd, nd, nd, nd, nd.
The variant GFTLCSYGIS, VIYADGRRTFYGDSVK, GRAAGTFDS [GP_HC] gave nd, nd, nd, 0.42, nd, nd.
The variant GFNLNSYGIS, VIYSDGRRTFYKDSVK, GQAAGTFDS [GPLM_Gibbs] gave 0.77, 1.13, 0.96, 1.06, 0.87, 1.04 (mean 0.97).
The variant GFTLNSYGIS, VIYSDGRRTFYGDSVK, GRAAGTFNS [Ctrl] gave nd, nd, nd, nd, nd, nd.
The variant GFQLNEYGIS, VIYSDGRRTFYHDSVK, GRAAGTFDQ [GP_HC] gave 0.26, 0.65, 0.28, 0.13, 0.09, 0.04 (mean 0.24).
The variant GFELNMYGIS, VIYSDGRRTFYGDSVK, GRAAGTFDS [Ctrl] gave 0.99, 1.07, 1.23, 1.22, 0.95, 1.17 (mean 1.10).
The variant GFELNSYGIS, VIYSDGRRTAYGDDVK, GRTAGTFDS [GP_Gen] gave 0.60, 0.30, -0.20, -0.22, 0.38, -0.39 (mean 0.08).
The variant GFELNSYGIS, VIYSDGRRTFYIDSVK, GKEAGTFDS [GP_Gen] gave 0.30, 0.16, 0.49, 0.30, 0.14, 0.33 (mean 0.29).
The variant GFDLNSYGIS, VIYSDGRRTFYGDSVK, GEAAGSFDS [GPLM_HC] gave nd, nd, nd, nd, nd, -0.63.
The variant GFTLNDYGIS, VIYSDGRRTFYGDSVK, GRAAGTFDI [GP_HC] gave -0.04, 0.02, -0.04, 0.15, -0.11, -0.15 (mean -0.03).
The variant GFSLNEYGIS, VIYSDGRRTFYKDSVK, GNAAGTFDS [GP_Gen] gave -0.02, 0.13, 0.00, 1.03, 0.76, 0.72 (mean 0.44).
The variant KFNLNSYGIS, VIYSDGKRTFYKDSVK, GRTAGTFDS [GP_Gibbs] gave nd, nd, nd, nd, nd, nd.
The variant GFSLNSYGIS, VIYSDGRRTFYGDSVK, GQVAGTFDI [GP_Gibbs] gave 0.23, 1.05, 1.07, 0.99, 1.16, 0.61 (mean 0.85).
The variant GVDLNSYGIS, VIYSDGRRTFYGDSVK, GRAAGTFDS [Ctrl] gave 0.82, 0.17, 0.22, 0.56, 0.45, 0.71 (mean 0.49).
The variant GFTLNSYGIS, VICSDGRRTQYGDQVK, GRSAGTFDS [Ctrl] gave nd, nd, nd, nd, nd, nd.
The variant GFTINDYGIS, VIYSDGRRTFYSDSVK, GRAAGTFHS [Ctrl] gave nd, nd, nd, nd, nd, nd.
The variant GFSLNDYGIS, VIYSDGRRTFYIDSVK, GQAAGTFDS [GPLM_Gen] gave 0.95, 0.51, 0.39, 0.38, 0.42, 0.22 (mean 0.48).
The variant GFTLNDYGIS, VIYSDGRRMYYIDSVK, GRAAGTFDS [GP_HC] gave 0.71, 0.36, 0.28, 0.99, 0.46, 0.63 (mean 0.57).
The variant GFTLNSYGIS, VIYSDGVRTFYSDSVK, GTAAGTFDS [GPLM_Gen] gave 1.63, 2.27, 1.11, 1.39, 2.18, 1.79 (mean 1.73).
The variant GFTLNEYGIS, VIYSDGRRTQYMDSVK, GRAAGTFDS [GP_HC] gave -0.05, 0.13, 1.29, 0.03, 1.68, nd (mean 0.62).
The variant GFNLNSYGIS, VIYSDGRRTFYADKVK, GQTAGTFDS [GP_Gibbs] gave 0.58, 0.29, 0.47, 0.28, 0.87, 0.24 (mean 0.46).
The variant GFELNEYGIS, VIYSDGRRTFYGDSVK, GKIAGTFDS [GP_Gen] gave -0.23, -0.41, -0.01, -0.38, -0.35, -0.26 (mean -0.27).
The variant GFDLNSYGIS, VIYSDGRRTFYSDSVK, GQAVGTFDS [GP_HC] gave nd, nd, 2.39, nd, nd, nd.
The variant GFTLNDYGIS, VIYSDGRRTFYGDSVK, GKTAGTFDS [GPLM_Gen] gave nd, nd, nd, nd, nd, nd.
The variant GFDLNSYGIS, VIYSDGRRTFYSDQVK, GEAAGTFDS [GP_Gen] gave 0.21, 0.70, 0.80, 0.14, -0.23, 0.29 (mean 0.32).
The variant GFALNSYGIS, VIYADGRRTFYGDSVK, GKAAGTFDS [GPLM_Gen] gave 0.11, 0.00, -0.23, -0.12, -0.14, 0.14 (mean -0.04).
The variant GFDLNAYGIS, VIYSDGRRTMYGDSVK, GRTAGTFDS [GP_Gen] gave 0.03, -0.17, 0.24, -0.47, -0.42, 0.14 (mean -0.11).
The variant GFTLNQYGIS, VEYSDGWRTFYGDSVK, GQAAKTFDL [Ctrl] gave nd, nd, nd, nd, nd, nd.
The variant GFSLNEYGIS, VIYSDGRRTFYGDSVK, GRIAGTFDG [GPLM_HC] gave 0.13, 0.60, 0.14, -0.23, -0.50, -0.62 (mean -0.08).

The closing 7 entries, repeated:

CDR-H1	CDR-H2	CDR-H3	group	replicates, log10 nM	mean log10 Kd (nM)
GFDLNSYGIS	VIYSDGRRTFYSDSVK	GQAVGTFDS	GP_HC	nd, nd, 2.39, nd, nd, nd	2.39
GFTLNDYGIS	VIYSDGRRTFYGDSVK	GKTAGTFDS	GPLM_Gen	nd, nd, nd, nd, nd, nd	nd
GFDLNSYGIS	VIYSDGRRTFYSDQVK	GEAAGTFDS	GP_Gen	0.21, 0.70, 0.80, 0.14, -0.23, 0.29	0.32
GFALNSYGIS	VIYADGRRTFYGDSVK	GKAAGTFDS	GPLM_Gen	0.11, 0.00, -0.23, -0.12, -0.14, 0.14	-0.04
GFDLNAYGIS	VIYSDGRRTMYGDSVK	GRTAGTFDS	GP_Gen	0.03, -0.17, 0.24, -0.47, -0.42, 0.14	-0.11
GFTLNQYGIS	VEYSDGWRTFYGDSVK	GQAAKTFDL	Ctrl	nd, nd, nd, nd, nd, nd	nd
GFSLNEYGIS	VIYSDGRRTFYGDSVK	GRIAGTFDG	GPLM_HC	0.13, 0.60, 0.14, -0.23, -0.50, -0.62	-0.08

The range of this assay differs from that of the first round, and the authors advise against merging the two. Nonspecific signal, from three strains lacking the peptide, appeared in 1% of pairings of all heavy chain designs, centred on 2.08 (5% of these signals below 0.84); values are not corrected for it.

Values reported by Li et al. 2023, doi:10.1038/s41467-023-39022-2 (FLAb copy).